PglD DTNB – PglD (C. jejuni) enzyme inhibition | AID 602405 | inhibition, % at 12.5 µM | 360,000 compounds, 0.098% hits | purified PglD enzyme, DTNB colorimetric CoA detection; in the data active = inhibition above about 16%, passing the limit was not always enough
ARNT-TACC3 inh – disrupts binding between human ARNT and TACC3; AlphaScreen His-ARNT PAS-B/GST-TACC3 binding, luminescence; TACC3 fragment carries E629A point mutation; inhibition, % at 9.99 µM; 390,000 compounds, 0.66% hits;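 active = mean inhibition of replicates at least 50% and at least half of replicates each reaching 50%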
FGF22 binding – shifts melting point of recombinant human FGF22. activity (Tm shift, normalised), % at 9.99 µM. AID 651658. Q9HCT0. recombinant FGF22 thermal shift, SYPRO orange fluorescence; percent of sucrose octasulfate shift, DMSO zero. 340,000 compounds, 1.5% hits;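 active = mean Tm shift, scaled 0 neutral to 100 positive control, at about 1.3% or above, every replicate too, limit read from the data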
ERp5 inh – ERp5 (human) disulfide isomerase inhibition; ERp5 insulin aggregation, absorbance 650 nm, 90 min; inhibition, % at 9.99 µM; 350,000 compounds, 0.05% hits;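 active = mean replicate inhibition above about 25%, with every replicate also reaching it, limit read from the data, passing the limit was not always enough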
PDI turbidity – blocks human protein disulfide isomerase activity. AID 588391. 350,000 compounds, 0.052% hits. inhibition, % at 10 µM. PDI insulin aggregation turbidity, A650, 90 min;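 active = mean inhibition across replicates of 30% or more, whatever share of single replicates reach that level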
UUG fidelity – alters start codon recognition fidelity in yeast | S. cerevisiae UUG-firefly luciferase reporter, luminescence/redox ratio | activity score, % at 18.7 µM | hit rate 0.13% among 350,000 | AID 602363;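 active means replicate mean at a twofold rise or more, about +100% in these data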;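 further: firefly luciferase made from a UUG start codon reports start codon fidelity; reporter light over untreated wells divided by growth signal over untreated wells; some hits fall short of that in this replicate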
Hits are given with their value. Sampled rows, rich in hits. Any-hit rate of the full collection: about 1.9%.

Results for O=C(C[C@H]1C[C@H]2c3cc(NC(=O)CC4CC4)ccc3O[C@H]2[C@@H](CO)O1)NCc1ccc(-c2ccccc2)cc1 ?
PglD DTNB: inactive; ARNT-TACC3 inh: inactive; FGF22 binding: inactive; ERp5 inh: 53; UUG fidelity: inactive

How did O=C(O)C[C@@H]1C[C@@H]2c3cc(NC(=O)CC4CC4)ccc3O[C@@H]2[C@@H](CO)O1 do in these assays?
PglD DTNB: inactive; ARNT-TACC3 inh: inactive; FGF22 binding: inactive; ERp5 inh: inactive; UUG fidelity: 50

How did COc1ccc2c3c([nH]c2c1)[C@@H](CO)N(C(=O)C1CCC1)CC31CN(C(=O)c2ccccn2)C1 do in these assays?
ERp5 inh: inactive

What do the screens show for `C[C@@H]1CCCCO[C@H](CN(C)CC2CCCCC2)[C@@H](C)CN([C@@H](C)CO)C(=O)c2cc(NS(=O)(=O)c3cn(C)cn3)ccc2O1`?
PglD DTNB: inactive; ARNT-TACC3 inh: inactive; FGF22 binding: inactive; ERp5 inh: inactive; UUG fidelity: inactive

Results for Cc1ccccc1NC(=O)COC(=O)CCc1nc2ccccc2c(=O)[nH]1 ?
PglD DTNB: inactive; ARNT-TACC3 inh: inactive; FGF22 binding: inactive; ERp5 inh: inactive; PDI turbidity: inactive; UUG fidelity: inactive

How did O=C(COC(=O)CCc1nc2ccccc2c(=O)[nH]1)Nc1c(Cl)cccc1C(F)(F)F do in these assays?
FGF22 binding: inactive; ERp5 inh: 26; PDI turbidity: inactive

How did CCC(=O)Nc1ccc2c(c1)C(=O)N(C)[C@@H]1CC[C@@H](CC(=O)O)O[C@@H]1CO2 do in these assays?
PglD DTNB: inactive; ARNT-TACC3 inh: inactive; FGF22 binding: inactive; ERp5 inh: inactive; UUG fidelity: inactive

Results for O=C1C(NS(=O)(=O)c2cccs2)=C(N2CCOCC2)C(=O)c2ccccc21 ?
PglD DTNB: inactive; ARNT-TACC3 inh: inactive; FGF22 binding: inactive; ERp5 inh: inactive; PDI turbidity: inactive; UUG fidelity: inactive

How did CN(C1=C(N2CCOCC2)C(=O)c2ccccc2C1=O)c1ccccc1 do in these assays?
PglD DTNB: inactive; ARNT-TACC3 inh: 60; PDI turbidity: inactive; UUG fidelity: inactive

How did COc1ccccc1-c1ccc2n(c1=O)C[C@@H]1[C@@H](CO)[C@H](C(=O)N3CCCCC3)[C@H]2N1CC1CC1 do in these assays?
PglD DTNB: inactive; ARNT-TACC3 inh: inactive; FGF22 binding: inactive; ERp5 inh: inactive

Results for O=C(CSc1cccc2cccnc12)Nc1cccc(S(=O)(=O)N2CCOCC2)c1 ?
ARNT-TACC3 inh: 26; FGF22 binding: inactive; ERp5 inh: inactive; PDI turbidity: inactive

How did CN(C)S(=O)(=O)c1cccc(NC(=O)CSc2nc3ccccc3[nH]2)c1 do in these assays?
ARNT-TACC3 inh: inactive; FGF22 binding: inactive; ERp5 inh: inactive; PDI turbidity: inactive

What do the screens show for `Cc1ccc(C)c(SCC(=O)Nc2cccc(S(=O)(=O)N3CCOCC3)c2)c1`?
PglD DTNB: inactive; ARNT-TACC3 inh: inactive; FGF22 binding: inactive; ERp5 inh: inactive; PDI turbidity: inactive; UUG fidelity: inactive

Results for O=C(CSc1nc2ccccc2[nH]1)Nc1cccc(S(=O)(=O)N2CCOCC2)c1 ?
PglD DTNB: inactive; ARNT-TACC3 inh: inactive; FGF22 binding: 1.8; ERp5 inh: inactive; PDI turbidity: inactive; UUG fidelity: inactive

How did CC(C)CC#Cc1cnc2c(c1)C(=O)N([C@@H](C)CO)C[C@@H](C)[C@@H](CN(C)Cc1ccccc1F)O2 do in these assays?
PglD DTNB: inactive; ARNT-TACC3 inh: inactive; FGF22 binding: inactive; ERp5 inh: inactive; UUG fidelity: inactive

How did Cc1noc(C)c1S(=O)(=O)N(C)C[C@H]1Oc2ccc(NC(=O)CCCCCC(=O)Nc3ccccc3N)cc2CC(=O)N([C@@H](C)CO)C[C@H]1C do in these assays?
FGF22 binding: inactive; ERp5 inh: inactive

Results for Cc1nc2ncccn2c1-c1csc(Nc2ccc(N(C)C)cc2)n1 ?
ARNT-TACC3 inh: inactive; FGF22 binding: inactive; ERp5 inh: inactive; PDI turbidity: inactive

How did Cc1nc2ncccn2c1-c1csc(Nc2ccc(S(N)(=O)=O)cc2)n1 do in these assays?
PglD DTNB: inactive; ARNT-TACC3 inh: inactive; FGF22 binding: inactive; ERp5 inh: inactive; PDI turbidity: inactive; UUG fidelity: inactive

Results for COc1ccc(Nc2nc(-c3c(C)nc4ncccn34)cs2)cc1 ?
ARNT-TACC3 inh: 46; FGF22 binding: inactive; ERp5 inh: inactive; PDI turbidity: inactive

How did Cc1nc2ncccn2c1-c1csc(Nc2ccccc2)n1 do in these assays?
ARNT-TACC3 inh: 58; FGF22 binding: inactive; ERp5 inh: inactive; PDI turbidity: inactive

How did COc1ccccc1Nc1nc(-c2c(C)nc3ncccn23)cs1 do in these assays?
PglD DTNB: inactive; ARNT-TACC3 inh: 45; FGF22 binding: inactive; ERp5 inh: inactive; PDI turbidity: inactive; UUG fidelity: inactive

What do the screens show for `COC(=O)C[C@@H]1CC[C@@H]2[C@@H](COc3ccc(NC(=O)C4CC4)cc3C(=O)N2C)O1`?
PglD DTNB: inactive; ARNT-TACC3 inh: inactive; FGF22 binding: inactive; ERp5 inh: inactive; UUG fidelity: inactive

Results for C[C@H](CO)N1C[C@H](C)[C@@H](CN(C)C)Oc2cc(-c3cncnc3)ccc2S1(=O)=O ?
PglD DTNB: inactive; ARNT-TACC3 inh: inactive; FGF22 binding: inactive; ERp5 inh: inactive; UUG fidelity: inactive

What do the screens show for `O=C(C[C@H]1CC[C@H](NC(=O)C2CCC2)[C@H](CO)O1)NCC1CC1`?
PglD DTNB: inactive; ARNT-TACC3 inh: inactive; FGF22 binding: inactive; ERp5 inh: inactive

What do the screens show for `O=C(COc1ncnc2sccc12)Nc1ccc(F)cc1F`?
ARNT-TACC3 inh: inactive; FGF22 binding: 44; ERp5 inh: inactive; PDI turbidity: inactive

Results for CNC(=O)COc1ncnc2sccc12 ?
PglD DTNB: inactive; ARNT-TACC3 inh: inactive; PDI turbidity: inactive; UUG fidelity: inactive

Results for CCOC(=O)c1c(O)c(Cl)c(C)[nH]c1=O ?
PglD DTNB: inactive; ARNT-TACC3 inh: inactive; FGF22 binding: 43; ERp5 inh: inactive; PDI turbidity: inactive; UUG fidelity: inactive

What do the screens show for `CCOC(=O)c1c(O)c2c([nH]c1=O)CCCC2`?
PglD DTNB: inactive; ARNT-TACC3 inh: inactive; PDI turbidity: inactive; UUG fidelity: inactive

What do the screens show for `CCCNC(=O)[C@@H]1[C@@H](CO)[C@@H]2Cn3c(cccc3=O)[C@@H]2N1C(=O)C1CCCC1`?
PglD DTNB: inactive; ARNT-TACC3 inh: inactive; FGF22 binding: inactive; ERp5 inh: inactive; UUG fidelity: inactive

Results for COc1ccc2c(n1)Sc1nc3ccccc3nc1N2 ?
PglD DTNB: inactive; ARNT-TACC3 inh: 8.9; FGF22 binding: inactive; ERp5 inh: inactive; PDI turbidity: inactive; UUG fidelity: inactive

Results for C[C@H](CO)N1C[C@H](C)[C@@H](CN(C)C(=O)Nc2ccc(C(F)(F)F)cc2)OCCCC[C@H](C)Oc2ccc(NS(=O)(=O)c3cccs3)cc2C1=O ?
PglD DTNB: inactive; ARNT-TACC3 inh: inactive; FGF22 binding: inactive; ERp5 inh: inactive; UUG fidelity: inactive

How did COc1cc2c(C#N)c(N3CCCCC3)nc(N)c2c(N)n1 do in these assays?
PglD DTNB: inactive; PDI turbidity: inactive; UUG fidelity: inactive
